The record followed here is ChEMBL document CHEMBL1152717, “Discovery of mu-opioid selective ligands derived from 1-aminotetralin scaffolds made via metal-catalyzed ring-opening reactions” (Bioorg Med Chem Lett, 2009).

Protein sequences, listed by entry. Tags and fused reporters are not part of them. Lines headed by an entry give the natural chain unless they say otherwise; changes in a name come on top.
UniProt P35372, whole entry, looked up: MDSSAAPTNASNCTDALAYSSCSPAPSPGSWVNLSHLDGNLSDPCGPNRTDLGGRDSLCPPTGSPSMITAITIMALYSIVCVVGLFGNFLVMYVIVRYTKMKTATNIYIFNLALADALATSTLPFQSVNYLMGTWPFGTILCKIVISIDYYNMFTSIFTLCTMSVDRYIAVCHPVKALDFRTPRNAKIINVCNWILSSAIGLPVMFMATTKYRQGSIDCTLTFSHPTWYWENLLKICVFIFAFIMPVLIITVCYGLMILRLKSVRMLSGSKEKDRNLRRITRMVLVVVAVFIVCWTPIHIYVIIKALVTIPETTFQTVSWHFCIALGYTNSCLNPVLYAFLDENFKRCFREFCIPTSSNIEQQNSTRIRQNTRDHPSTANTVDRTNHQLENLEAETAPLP
UniProt P41145: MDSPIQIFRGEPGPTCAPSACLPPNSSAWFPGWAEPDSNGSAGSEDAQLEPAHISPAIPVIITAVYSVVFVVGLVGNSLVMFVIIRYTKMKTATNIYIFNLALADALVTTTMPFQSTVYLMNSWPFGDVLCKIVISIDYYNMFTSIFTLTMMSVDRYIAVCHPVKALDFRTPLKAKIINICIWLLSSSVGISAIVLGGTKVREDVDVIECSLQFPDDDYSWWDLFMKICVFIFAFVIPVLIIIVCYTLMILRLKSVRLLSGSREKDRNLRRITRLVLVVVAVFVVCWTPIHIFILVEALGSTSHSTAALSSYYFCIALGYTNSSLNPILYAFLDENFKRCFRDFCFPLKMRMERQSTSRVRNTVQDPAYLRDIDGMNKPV
UniProt P41143, whole entry, looked up: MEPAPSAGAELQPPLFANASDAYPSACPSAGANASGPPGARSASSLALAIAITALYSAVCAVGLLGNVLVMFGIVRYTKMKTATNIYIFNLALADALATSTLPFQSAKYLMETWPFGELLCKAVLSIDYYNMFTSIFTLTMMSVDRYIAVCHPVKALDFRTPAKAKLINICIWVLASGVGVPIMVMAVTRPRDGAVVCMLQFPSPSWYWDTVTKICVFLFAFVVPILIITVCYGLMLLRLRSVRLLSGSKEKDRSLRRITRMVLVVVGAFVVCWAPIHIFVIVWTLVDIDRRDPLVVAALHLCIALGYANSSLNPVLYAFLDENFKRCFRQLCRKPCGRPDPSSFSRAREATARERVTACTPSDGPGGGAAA

Experiment [1] concerns the target T1, Mu-type opioid receptor (Homo sapiens, UniProt P35372). Kind of experiment: Displacement of [125I]FK33824 from human cloned mu opioid receptor.
Experiment [2] concerns the target Kappa-type opioid receptor (Homo sapiens, UniProt P41145). Briefly: Displacement of [125I]U69593 from human cloned kappa opioid receptor.
The target in experiment [3] is Delta-type opioid receptor (Homo sapiens, UniProt P41143). Briefly: Displacement of [125I]deltorphin 2 from human cloned delta opioid receptor.
Experiment [4] deals with T1, Mu-type opioid receptor.

Where only a bound is given, the exact number is not on record here.

With `COCCN(C(=O)Cc1ccc(Cl)cc1)C1c2cc(OC)c(OC)cc2CCC1N(C)C` (stereo unspecified), the IC50 on Mu-type opioid receptor [1] was 1.12 µM; in experiment [2] it was 0.922 µM; in experiment [3], above 10 µM. Moreover, on Mu-type opioid receptor [4], the EC50 was above 90 µM.
In the case of `COCCN(C(=O)COc1ccc(Cl)cc1)C1c2cc(OC)c(OC)cc2CCC1N(C)C` (stereo unspecified), the IC50 is 0.245 µM on Mu-type opioid receptor [1], 0.155 µM in experiment [2] and above 10 µM in experiment [3]. Also, the 50% effective concentration (EC50) on Mu-type opioid receptor [4] is above 90 µM.
Turning to `COCCN(C(=O)Cc1ccccc1Br)C1c2cc(OC)c(OC)cc2CCC1N(C)C` (stereo unspecified), the values for the IC50 (at Mu-type opioid receptor [1]; in experiment [2]; in experiment [3]) were 4.83 µM, 1.01 µM and above 10 µM, respectively.
